Measured values as given in PubChem BioAssay AID889 (National Center for Advancing Translational Sciences (NCATS), 2007).
This is a selection; strong and weak results do not stand in their true shares. Records with an inconclusive call do not appear. Active and inactive are the calls of the source. Calls follow the shape of the dose curve; as a rule, active = well fitted inhibition curve with a large enough effect in the main read-out, with a control signal flat (not every such curve was filed as active); inconclusive = small, poorly fitted or top-dose-only effect, or a change in a side signal; inactive = flat fitted curve, though single readings scatter.

Sequences of proteins named here, by UniProt entry; tags and fusion partners are left off. Residues count along the entry.
UniProt P55210, 24-198 limits assumed: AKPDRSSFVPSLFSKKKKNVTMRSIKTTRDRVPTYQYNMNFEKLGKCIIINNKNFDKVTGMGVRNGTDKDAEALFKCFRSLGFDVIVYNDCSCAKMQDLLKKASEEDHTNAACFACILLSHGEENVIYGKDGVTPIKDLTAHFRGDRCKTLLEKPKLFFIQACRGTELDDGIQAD
UniProt P55210, 207-303 limits assumed: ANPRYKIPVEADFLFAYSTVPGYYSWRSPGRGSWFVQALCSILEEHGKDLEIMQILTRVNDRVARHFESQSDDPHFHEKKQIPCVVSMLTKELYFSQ

target: Caspase-7 (Homo sapiens) (UniProt P55210); experiment: qHTS Assay for Allosteric/Competitive Inhibitors of Caspase-7; details: recombinant caspase-7, Ac-DEVD-AFC fluorescence rate; at 57.5 µM (top of the series) unless noted; also: % of control where 0% means no effect
Excerpt: NIH Molecular Libraries Screening Centers Network [MLSCN]
NIH Chemical Genomics Center [NCGC]
PI Name: Dr. James Wells,
Dr. Enrique Perez-Paya, Dr.Janice Williams, Dr. Dennis Wolan, a person
The caspases (Cysteine Aspartyl Protease) comprise a related family of 14 dimeric proteases that are critical mediators of apoptosis (programmed cell death) and inflammation. The caspases represent an important class of drug targets for stroke, ischemia, cancer and inflammatory diseases. […] One goal of this project was to identify compounds that act as allosteric inhibitors via stabilizing the procaspase form of the enzyme. Previous work in Well's laboratory has shown that such allosteric inhibitors can be identified and these act by binding at the dimer interface of enzyme (Hardy, Lam et al., 2004).
The biochemical assay was configured using purified caspase 7 at a high enzyme concentration to promote formation of the homodimers and thus facilitate the identification of allosteric inhibitors. The overall goal was to identify reversible inhibitors with better drug-like properties than the currently available set of aspartyl-containing peptidomimetics that covalently bind the active site. Caspase 7 was assayed using the profluorescent substrate Ac-DEVD-AFC. After initiation of the assay with substrate the plates were rapidly read using an automated robotic system (Kalypsys, Inc.) to maintain consistent timing. A kinetic mode of detection was used where the initial rate was collected (estimated final product formation was ~10%). Compounds were screened as a concentration-titration series that ranged from 57 uM to 0.7 nM. Below is the protocol used for caspase 7.
NCGC Assay Protocol Summary:
Caspase 7 was prepared in buffer (50 mM HEPES pH 7.5, 50 mM KCl, 200 mM NaCl, 10 mM DTT, 0.1% CHAPS) at a concentration of 66.6 nM and 3 uL was dispensed to all wells using black solid Kalypsys 1536-well plates. 20 nL of DMSO containing compounds was added using a pin-tool (Kalypsys Inc.) to columns 5-48. Then 20 nL of DMSO solution from a control plate was added to columns 1-4. Controls were: Column 1, 16 point titration with each concentration in duplicate (1:1 dilutions in DMSO; final starting concentration was 57 uM) of the caspase 7 inhibitor Ac-DEVD-CHO (Alexis Biochemicals); Column 2, a 16 point titration with each concentration in duplicate of the free AFC fluorophore prepared in DMSO (Alexis Biochemicals), final starting was 40 uM; Column 3 neutral (DMSO only) control; Column 4: DMSO alone, to serve as a negative control (no substrate was added). Then 1 uL of 20 uM the substrate Ac-DEVD-AFC (Alexis Biochemicals) prepared in the same buffer was dispensed to all wells except columns 2 and 4 and the plates were immediately transferred (< 1 min) to the Viewlux. The plates were then exposed using 405 nm excitation/520 nm emission filters for 4 sec and read at 20 sec intervals for 3 min. Final enzyme concentration was 50 nM and the final substrate concentration was 5 uM.
Concentration-response curves were fitted to the data calculated from slope of the linear regression of fluorescent intensity versus time (the rate). The concentration-effect curves were then classified based on curve quality (r2), response magnitude and degree of measured activity. […] Inconclusive compounds had appreciable concentration-dependent effects on both the measured rate and the interpolated basal fluorescence intensity at the start of the reaction but where the basal fluorescent intensity was marginal (e.g. < 10-fold). Inconclusive compounds also encompass highly fluorescent compounds (>100-fold increases in fluorescent intensities values relative to controls) where artificial concentration-dependent decreases in the rate occurred at high compound concentrations due to fluorescent interferences.
Keywords: Caspase 7, proteases, profluorescent, MLSMR, MLSCN, NIH Roadmap, qHTS, NCGC

Row | SMILES | activity change, negative = inhibition
1 | COc1ccccc1OP(C)(=O)Nc1ccc(C)c(C)c1 (configuration not stated) | inactive: 2.88%
2 | Cc1nc2ccc3ccccc3c2o1.O=[N+]([O-])c1cc([N+](=O)[O-])c(O)c([N+](=O)[O-])c1 | inactive: -7.77%
3 | CP(=O)(Nc1ccccn1)Oc1ccccc1 (configuration not stated) | inactive: -2.03%
4 | OCCSCCO | inactive: 0.761%
5 | COc1ccccc1OP(C)(=O)Nc1c(C)n(C)n(-c2ccccc2)c1=O (configuration not stated) | inactive: 0.815%
6 | CP(=O)(Oc1ccccc1)N1CCOC1=O (configuration not stated) | inactive: 1.05%
7 | N#[O+].[C-]#N.[C-]#N.[C-]#N.[C-]#N.[C-]#N.[Fe+2].[Na+].[Na+] | inactive: 0.0357%
8 | C/C1=C2N=C(/C=C3N=C(/C(C)=C4\[N-][C@@](C)([C@H]5N=C1[C@@](C)(CCC(=O)NC[C@H](C)OP(=O)([O-])O[C@@H]1[C@H](O)[C@H](n6cnc7cc(C)c(C)cc76)O[C@@H]1CO)[C@@H]5CC(N)=O)[C@](C)(CC(N)=O)[C@H]4CCC(N)=O)[C@@](C)(CC(N)=O)[C@@H]\3CCC(N)=O)C(C)(C)[C@@H]/2CCC(N)=O.[C-]#N.[Co+3] | inactive: -13.1% [at 25.7 µM]
9 | CN(C)CCOC(=O)C(O)(c1ccccc1)C1CCCCC1 (configuration not stated) | inactive: -2.77%
10 | Cc1c([N+](=O)[O-])cccc1[N+](=O)[O-] | inactive: -0.822%
11 | Cc1ccc([N+](=O)[O-])c([N+](=O)[O-])c1 | inactive: 1.76%
12 | CCOP(C)(=S)SCC(=O)NC(C)(CC)C(=O)O (configuration not stated) | inactive: 0.073%
13 | CCOP(=O)(CC)OCC | inactive: 0.784%
14 | [NH4+].[O-][Cl+3]([O-])([O-])[O-] | inactive: -0.421%
15 | CCN(CCCl)Cc1ccccc1C | inactive: -0.187%
16 | Cc1ccccc1NP(C)(=O)Nc1ccccc1C | inactive: -0.566%

Row | SMILES | activity change, negative = inhibition
17 | NNC(NN)NN.n1nc(-c2nn[nH]n2)n[nH]1 | inactive: -1.21% [at 11.5 µM]
18 | CP(=O)(Nc1ccc2c(c1)OCCO2)Oc1ccccc1 (configuration not stated) | inactive: 1.44%
19 | CP(=O)(Nc1ccccc1F)Oc1ccccc1 (configuration not stated) | inactive: 1.35%
20 | Cc1cccc([N+](=O)[O-])c1[N+](=O)[O-] | inactive: 1.19%
21 | CCC(C)(OO)OOC(C)(CC)OO (configuration not stated) | inactive: 0.0223%
22 | O=[N+]([O-])c1cccc([N+](=O)[O-])c1 | inactive: -0.128%
23 | Cc1ccc([N+](=O)[O-])cc1[N+](=O)[O-] | inactive: 1.23%
24 | Cc1ccc(C)c(NP(C)(=O)Oc2ccccc2)c1 (configuration not stated) | inactive: 0.442%
25 | Cc1nc2ccc3ccccc3c2s1.O=[N+]([O-])c1cc([N+](=O)[O-])c(O)c([N+](=O)[O-])c1 | inactive: 1.21%
26 | N1=C(c2nnc(-c3nn[nH]n3)nn2)NNN1 | inactive: 0.302% [at 11.5 µM]
27 | CP(=S)(Nn1cnnc1)Oc1ccccc1 (configuration not stated) | inactive: -0.0935%
28 | CP(=O)(NC(=O)Nc1ccccc1)Oc1ccccc1 (configuration not stated) | inactive: -0.83%
29 | CCOP(C)(=S)SCC(=O)NC(C)C(=O)O (configuration not stated) | inactive: -2.61%
30 | O=[N+]([O-])[O-].[NH4+] | inactive: 1.5%
31 | Cc1ccc(NP(C)(=O)Oc2ccccc2)c(C)c1 (configuration not stated) | inactive: 0.116%
32 | COc1ccccc1OP(C)(=O)Nc1ccc(C)cc1 (configuration not stated) | inactive: -5.33%
